Test results taken from the supplement of paper PMC11616607.

Key:
Test in all cases: drug sensitivity score (DSS) from 5-point dose-response viability curve (DSS (area-under-curve based score)); higher = more sensitive (stronger growth inhibition or killing); extreme values may be limits of the assay
Settings in all cases: exposure time: 72 h; concentration range: 5 concentrations over 10,000-fold range
HOSE1C = test system: HOSE1C
In short: (§1)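 Ovarian cancer and normal ovarian cell lines were tested in 384-well plates. Drugs were acoustically dispensed (Echo 550) in DMSO or water at five concentrations spanning a 10,000-fold range, then 1,500 cells per well were added and incubated 3 days at 37°C, 5% CO2. Viability was read by CellTiter-Glo luminescence on a PHERAstar FS. Drug sensitivity score was derived per cell line and drug with Breeze software; higher means more sensitive, zero means no response.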

JHOS2 = test system: JHOS2
In short: as §1

OVCAR5 = test system: OVCAR5
In short: as §1

OV90 = test system: OV90
In short: as §1

Ovsaho = test system: Ovsaho
In short: as §1

OVCAR8 = test system: OVCAR8
In short: as §1

OVCAR4 = test system: OVCAR4
In short: as §1

COV318 = test system: COV318
In short: as §1

HOSE2C = test system: HOSE2C
In short: as §1

COV362 = test system: COV362
In short: as §1

Kuramochi = test system: Kuramochi
In short: as §1

CAOV3 = test system: CAOV3
In short: as §1

**Q.** Which drug sensitivity score (HOSE1C) does the source give for `NCc1ccc(OCCCc2sc(-c3ccc4c(c3)/C(=N/Nc3nc5ccccc5s3)CCC4)nc2C(=O)O)cc1` [WEHI-539] here?
**A.** 4.3

**Q.** And the drug sensitivity score (JHOS2)?
**A.** 0

**Q.** And the drug sensitivity score (OVCAR5)?
**A.** 0

**Q.** What about the drug sensitivity score (OV90) of the same compound?
**A.** 0

**Q.** And the drug sensitivity score (Ovsaho)?
**A.** 2.4

**Q.** What about the drug sensitivity score (OVCAR8) of the same compound?
**A.** 0

**Q.** What about the drug sensitivity score (OVCAR4) of the same compound?
**A.** 0.7

**Q.** What about the drug sensitivity score (COV318) of the same compound?
**A.** 0

**Q.** And the drug sensitivity score (HOSE2C)?
**A.** 1.9

**Q.** What about the drug sensitivity score (COV362) of the same compound?
**A.** 0

**Q.** What about the drug sensitivity score (Kuramochi) of the same compound?
**A.** 0

**Q.** What about the drug sensitivity score (CAOV3) of the same compound?
**A.** 0
